From patent US5792767A, “Bicyclic substituted hexahydrobenz [e] isoindole alpha-1 adrenergic antagonists” (priority 1995, dated 1998)

Biological target: T1, α-1A adrenoceptor (rat vas deferens) (Rattus norvegicus, UniProt P43140)
T1 sequence (P43140 1-466): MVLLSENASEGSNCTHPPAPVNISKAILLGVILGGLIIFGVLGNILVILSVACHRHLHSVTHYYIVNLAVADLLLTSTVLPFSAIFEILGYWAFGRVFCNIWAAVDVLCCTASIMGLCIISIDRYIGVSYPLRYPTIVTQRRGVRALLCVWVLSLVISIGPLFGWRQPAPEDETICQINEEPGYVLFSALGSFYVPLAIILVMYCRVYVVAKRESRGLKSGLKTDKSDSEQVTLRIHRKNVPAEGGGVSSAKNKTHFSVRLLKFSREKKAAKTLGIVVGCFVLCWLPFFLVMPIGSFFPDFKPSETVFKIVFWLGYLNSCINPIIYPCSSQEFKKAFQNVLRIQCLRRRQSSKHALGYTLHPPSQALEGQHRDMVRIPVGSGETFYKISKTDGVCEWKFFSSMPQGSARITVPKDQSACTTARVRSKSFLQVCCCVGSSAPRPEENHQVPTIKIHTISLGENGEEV
Assay: Functional antagonism of phenylephrine-induced contraction of rat vas deferens

Kb [nM]	pA2 Rat Vas Deferens [α-1A] (vs phenylephrine-induced contraction, Schild plot)	Structure (SMILES)
9.12	–	COc1cc2[nH]c(=O)n(CCN3C[C@@H]4CCc5c(OC)cccc5[C@@H]4C3)c(=O)c2cc1OC (relative stereo) [Example 10, hydrochloride]
2.04	–	COc1cccc2c1CC[C@H]1CN(CCn3c(=O)[nH]c4cc(Cl)ccc4c3=O)C[C@@H]21 (relative stereo) [Example 11, hydrochloride]
–	8.04	COc1cc2nc(N3CCN(C(=O)C4CCCO4)CC3)nc(N)c2cc1OC (stereo not drawn) [terazosin, reference compound]

Counter-ions that a name gives are not always drawn.
